By UniProt entry, the sequences of proteins in these tests, tags left out. Where a name states a change or a piece, a line headed by the entry shows the natural chain unless it says otherwise.
UniProt P41146: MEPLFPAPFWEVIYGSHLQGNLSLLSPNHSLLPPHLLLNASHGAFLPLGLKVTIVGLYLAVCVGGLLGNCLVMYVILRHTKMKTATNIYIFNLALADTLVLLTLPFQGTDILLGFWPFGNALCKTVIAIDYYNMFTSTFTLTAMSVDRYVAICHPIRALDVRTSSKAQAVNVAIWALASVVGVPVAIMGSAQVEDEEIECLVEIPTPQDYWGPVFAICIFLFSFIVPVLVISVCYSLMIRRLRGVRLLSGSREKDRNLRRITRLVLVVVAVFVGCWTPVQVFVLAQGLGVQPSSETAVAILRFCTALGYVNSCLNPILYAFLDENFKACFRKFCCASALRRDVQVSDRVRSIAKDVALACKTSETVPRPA

In ChEMBL document CHEMBL1146689, “The design and synthesis of a novel quinolizidine template for potent opioid and opioid receptor-like (ORL1, NOP) receptor ligands” (2004):

Target: Nociceptin receptor (Homo sapiens, UniProt P41146)
Assay: Binding affinity for human nociceptin (NOP) receptor using [3H]N/OFQ as radioligand transfected into CHO cells

## CC(C)C1CCC(N2CCC3(CC2)C(c2ccccc2)C[C@H]2CN(C)C[C@H]23)CC1 (stereo partly specified)
  Ki: 0.49 nM
